# Values of other authors in PMC8672735, “Computational and experimental investigation of the effect of cation structure on the solubility of anionic flow battery active-materials” (Chemical Science, 2021).
# Settings: MeCN (ϵ = 37); +4 state, [Nxxxx]2[VBH]; cited from earlier work
substance,measurement,value
Tetramethylammonium vanadium(IV)-bis-hydroxyiminodiacetate [[N1111]2[VBH]],Experimental solubility (maximum concentration of VBH in the electrolyte),4 mM
